# Measured values from US20110201016A1, “METHOD FOR DETECTING MODULATOR FOR REGULATING ACTIVITY OF CELLULAR COMPONENT IN CELL” (MEDISCOV INC., priority 2010, published 2011).
# The chains behind the UniProt entries cited, without tags or fusion partners. Residues count along the entry.
# UniProt P10721, 545-976: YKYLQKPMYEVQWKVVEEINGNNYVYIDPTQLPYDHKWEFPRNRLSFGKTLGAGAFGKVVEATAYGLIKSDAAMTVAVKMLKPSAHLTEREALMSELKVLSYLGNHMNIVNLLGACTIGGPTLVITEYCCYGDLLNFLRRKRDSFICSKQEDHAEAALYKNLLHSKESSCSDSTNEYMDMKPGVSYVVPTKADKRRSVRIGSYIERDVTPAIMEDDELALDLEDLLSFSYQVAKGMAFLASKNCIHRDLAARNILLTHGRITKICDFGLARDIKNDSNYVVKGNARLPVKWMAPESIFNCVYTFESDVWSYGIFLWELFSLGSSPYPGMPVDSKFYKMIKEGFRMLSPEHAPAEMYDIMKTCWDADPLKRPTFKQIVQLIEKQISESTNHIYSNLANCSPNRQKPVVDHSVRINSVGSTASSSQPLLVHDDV
# Target: KIT (Homo sapiens, UniProt P10721)
# Experiment: Binding of dasatinib-magnetic substance to EGFP-labelled kinase in cells (magnetic pattern co-localization)
# Conditions: KIT-EGFP (amino acids 545-976) in HeLa cells; dasatinib-biotin coated on streptavidin magnetic substance; magnetic field
smiles,measurement,value
"Cc1nc(Nc2ncc(C(=O)Nc3c(C)cccc3Cl)s2)cc(N2CCN(CCO)CC2)n1 [dasatinib, N-(2-chloro-6-methyl-phenyl)-2-(6-(4-(2-hydroxyethyl)-piperazin-1-yl)-2-methylpyrimidin-4-ylamino)thiazole-5-carboxamide]",fluorescent pattern of kinase-EGFP overlapped with magnetization pattern (binding),showed the fluorescent patterns aligned in a magnetized direction
